Tested on: MRL/Ipr mice
Test: Vasculitis disease model, MRL/Ipr mice, gene expression in renal artery
Type: in vivo, mouse
Details: conjugate 0.12 mg/kg every 2 days, abatacept 5.7 mg/kg, 10 weeks
Protocol: MRL/Ipr mice were used to confirm the efficacy of a long-acting triple agonist against vasculitis in a disease model. […] Therefore, the mouse was selected as a vasculitis disease model.
Prepared were: a normal mouse control group administered with excipients; a disease model control group administered with excipients; a control group administered with 5.7 mg/kg of abatacept (Orencia Inc.); and a test group administered with 0.12 mg/kg of the long-acting conjugate of triple agonist. The excipient and the long-acting conjugate of the triple agonist were administered every 2 days, and the experiment was terminated on the 10th week. As the long-acting conjugate of the triple agonist, the long-acting conjugate of the triple agonist prepared according to Example 2 (SEQ ID NO: 42) was used.

Substance: abatacept [reference compound]
- expression of vascular angiogenic factors MMP-2 and MMP-9 in the renal artery (compared to control group, FIG. 1B): unlike the abatacept-administered group
- expression of inflammation-associated genes MCP-1, IL-1β, IL-6, TNF-α in the renal artery (compared to disease model control group, FIG. 1A): significantly reduced

— US20230381333A1, “PHARMACEUTICAL COMPOSITION COMPRISING GLUCAGON/GLP-1/GIP TRIPLE AGONIST OR LONG-ACTING CONJUGATE THEREOF FOR PREVENTING OR TREATING VASCULITIS” (HANMI PHARM CO., LTD., priority 2020, published 2023)
